{
  "source": "patent US20210379094A1",
  "about": "“METHOD FOR REDUCING DRUG-INDUCED NEPHROTOXICITY” (Yissum Research Development Company of the Hebrew …, priority 2019, published 2021)",
  "key": {"HK-2 cells": {"system": "HK-2 cells", "assay": "Standard 2D LIVE/DEAD dose-dependent toxicity assay", "format": "cell-based, human", "details": "standard 2D cell culture, 24 hours", "procedure": "Bioreactors were perfused with different concentrations of compounds dissolved in culture medium. […] TC50 concentrations were determined using MATLAB by sigmoidal curve fitting. […] Time to onset was analyzed by MATLAB based on LPF and trend assessment. […] Live cells were positive for green fluorescence due to hydrolysis of the acetoxymethyl ester group by intracellular esterases. Dead cells were positive for red fluorescence due to ethidium homodimer-1 binding intracellular DNA, possible in intact membranes."}, "[1]": {"system": "HK-2 and RPTEC monolayers", "assay": "Lipid accumulation assay (LipidTOX phospholipidosis and steatosis)", "format": "cell-based, human", "details": "48 h exposure"}},
  "data": [
    {"substance": "Gentamicin", "values": [
      {"measurement": "TC50", "setting": "HK-2 cells", "result": 182.4, "unit": "mM"},
      {"measurement": "neutral lipid accumulation and phospholipidosis", "setting": "[1]", "result": "mainly neutral lipids"}
    ]}
  ]
}
